# Measured values as given in patent US7411039B2, “GLP-2 compounds, formulations, and uses thereof” (Novo Nordisk A/S, priority 2002, dated 2008).
# Several values for one entry are separate records, joined by “and”; a condition that tells them apart may be missing. Equal values may be shown once. Read-outs that look alike come from different tables or passages of the source.
# What was measured:
# [1] = Metabolic stability of GLP-2 derivatives in vivo in pigs (terminal plasma elimination half-life T½); conditions: pig, sc, female LYD crossbred pigs, subcutaneous injection, 0.5 nmol/kg, plasma analysed by ELISA
# Protocol: Metabolic stability of selected GLP-2 derivatives. The degradation of GLP-2 derivatives in vivo in pigs have been studied and T½ value determined for selected GLP-2 derivatives according to the present invention (T½: Terminal plasma elimination half-life) (Table 9).
# All test substances were dissolved in 20 mM phosphate buffer pH 7.4.
# Female LYD crossbred pigs weighing 50-75 kg. were used. All test substances were dosed 0.5 nmol/kg. The dosing volume was approx. 1 ml per animal.
# Subcutaneous injections were given at the right side of the neck approximately 7 cm from the ear and 9 cm from the middle of the neck. Injections were given with a stopper on the needle, allowing 0.5 cm of the needle to be inserted.
# Blood samples were drawn from an ear vein catheter. The catheter was rinsed with heparin 50 IE/ml in physiological saline. During sampling the first ml blood drawn was discarded. Blood samples were kept on ice for no longer than 20 min. before centrifugation (4° C., 4000 rpm, 10 min). After centrifugation plasma was isolated and transferred to Micronic-tubes in duplo. The plasma samples were analysed by ELISA.
# [2] = system: growth of the small intestine in mice; assay type: in vivo; conditions: for E0, parameter estimate (CV %), small intestinal weight / E0, parameter estimate (CV %), small intestinal weight relative to body weight: background efficacy level at D=0; for E0, parameter estimate (CV %), small intestinal weight / E0, parameter estimate (CV %), small intestinal weight relative to body weight / γ (shape factor, Hillslope), parameter estimate (CV %), small intestinal weight / γ (shape factor, Hillslope), parameter estimate (CV %), small intestinal weight relative to body weight / Emax, parameter estimate (CV %), small intestinal weight / Emax, parameter estimate (CV %), small intestinal weight relative to body weight: nonlinear regression of dose-response; for E0, parameter estimate (CV %), small intestinal weight / E0, parameter estimate (CV %), small intestinal weight relative to body weight / Emax, parameter estimate (CV %), small intestinal weight / Emax, parameter estimate (CV %), small intestinal weight relative to body weight: mice, daily s.c. for 10 days; for Small intestinal weight, Mean ± SD / Small intestinal weight/body weight, Mean ± SD: group mean; for Emax − E0, parameter estimate (CV %), small intestinal weight / Emax − E0, parameter estimate (CV %), small intestinal weight relative to body weight: treatment-induced increase, secondary parameter of curve fitting
# Text: Bioassay in Mice. Dose-Response Study of GLP-2 Derivatives. • Table 3. Model parameter estimates following nonlinear regression analysis of dose and small intestinal weights relative to body weight. • Table 4. Model parameter estimates following nonlinear regression analysis of dose and small intestinal weights. • Table 5. Body weight, small intestinal weight and relative small intestinal weight of mice treated with L17K(3-(tetradecanoylamino)propionyl)/K30R-[…]. • Table 6. […]. Body weight, small intestinal weight and relative small intestinal weight of mice treated with A2G-[…]. • Table 8. Body weight, small intestinal weight and relative small intestinal weight of control mice.
# The following GLP-2 derivatives and analog were tested: • 1. L17K(3-(tetradecanoylamino)propionyl)/K30R-[…]. • 2. L17K(3-(hexadecanoylamino)propionyl)/K30R-[…]. • 3. A2G-[…]. All derivatives were dissolved and diluted in buffer containing:
# Disodiumhydrogenphosphate 1.42 mg/ml, Mannitol 36.9 mg/ml, Phenol 5 mg/ml, pH 8.0.
# 189 female C57b1 mice were used in the study. All animals were divided into four groups:
# • Group 1: Controls • Group 2: L17K(3-(tetradecanoylamino)propionyl)/K30R-[…] • Group 3: L17K(3-(hexadecanoylamino)propionyl)/K30R-[…] • Group 4: A2G-[…] Dosing
# All animals received a daily subcutaneous injection of 100 pi for 10 days with the following doses:
# At Day 10 the animals were weighted before they were sacrificed. The intestine was carefully removed from each animal and the small intestine dissected, rinsed with saline and weighted.
# Body weight, small intestinal weight and small intestinal weight relative to body weight were reported for all animals and used generating the dose-response relationship. The treatment-induced increase in both absolute and relative small intestinal weight is calculated for each treatment group, since this is considered the pharmacologically relevant efficacy parameter.
# A generalised Michaelis-Menten model, with shape factor γ corresponding to the Hillslope in the semilogarithmic dose-response curve and E0 representing the background efficacy level at D=0, was used as dose-response model. Emax is the maximal effect observed and ED50 is the dose that gives an effect equal to 50% of Emax. The model was used because of the higher flexibility compared to a four parameter logistic dose-response model (1). The model was fitted to data using nonlinear regression in order to determine estimates for Emax, ED50, γ and E0.
# [formula] The goodness of fit was evaluated by visual inspection of plots showing observed data points together with fitted curves and residuals plots. Parameter estimates are presented together with CV % and 95% C.I.
# In order to account for the variability in the background efficacy level, control data were included in the nonlinear regression analysis as D=0 for all three treatment groups.
# The nonlinear regression analyses were performed using WinNonlin Professional, version 3.1, Pharsight. The nonlinear regression was performed using the Gauss-Newton (Levenberg and Hartley) algorithm.
# [3] = absolute small intestinal weight
# [4] = dose level A, 22 μg daily s.c. for 10 days
# [5] = dose level B, 11 μg daily s.c. for 10 days
# [6] = dose level C, 5.5 μg daily s.c. for 10 days
# [7] = dose level D, 2.75 μg daily s.c. for 10 days
# [8] = dose level E, 1.375 μg daily s.c. for 10 days
# [9] = dose level F, 0.678 μg daily s.c. for 10 days
# [10] = dose level G, 0.344 μg daily s.c. for 10 days
# [11] = relative small intestinal weight
# [12] = relative small intestinal weight as efficacy parameter
# [13] = small intestinal weight as efficacy parameter
# [14] = dose level A, 35 μg daily s.c. for 10 days
# [15] = dose level B, 17.5 μg daily s.c. for 10 days
# [16] = dose level C, 8.75 μg daily s.c. for 10 days
# [17] = dose level D, 4.375 μg daily s.c. for 10 days
# [18] = dose level E, 2.188 μg daily s.c. for 10 days
# [19] = dose level F, 1.094 μg daily s.c. for 10 days
# [20] = dose level G, 0.547 μg daily s.c. for 10 days
smiles,measurement,setting,value
CCCCCCCCCCCCCC(=O)NCCC(=O)NCCCC[C@H](NC(=O)[C@H](CC(N)=O)NC(=O)[C@H](CC(=O)O)NC(=O)[C@H](CC(C)C)NC(=O)[C@@H](NC(=O)[C@@H](NC(=O)[C@H](CC(N)=O)NC(=O)[C@H](CCSC)NC(=O)[C@H](CCC(=O)O)NC(=O)[C@H](CC(=O)O)NC(=O)[C@H](CO)NC(=O)[C@H](Cc1ccccc1)NC(=O)[C@H](CO)NC(=O)CNC(=O)[C@H](CC(=O)O)NC(=O)[C@H](C)NC(=O)[C@@H](N)Cc1c[nH]cn1)[C@@H](C)O)[C@@H](C)CC)C(=O)N[C@@H](C)C(=O)N[C@@H](C)C(=O)N[C@@H](CCCNC(=N)N)C(=O)N[C@@H](CC(=O)O)C(=O)N[C@@H](Cc1ccccc1)C(=O)N[C@H](C(=O)N[C@@H](CC(N)=O)C(=O)N[C@@H](Cc1c[nH]c2ccccc12)C(=O)N[C@@H](CC(C)C)C(=O)N[C@H](C(=O)N[C@@H](CCC(N)=O)C(=O)N[C@H](C(=O)N[C@@H](CCCNC(=N)N)C(=O)N[C@H](C(=O)N[C@H](C(=O)N[C@@H](CC(=O)O)C(=O)O)[C@@H](C)O)[C@@H](C)CC)[C@@H](C)O)[C@@H](C)CC)[C@@H](C)CC [L17K(3-(tetradecanoylamino)propionyl)/K30R-GLP-2(1-33)],half-life,[1],3.5 ± 1.8 h
same,treatment-induced increase (Emax-E0) compared to A2G-GLP-2(1-33),[2]; [3],4.9 fold
same,"E0, parameter estimate (CV %), small intestinal weight",[2],1.0993 (3.5) g
same,"E0, parameter estimate (CV %), small intestinal weight relative to body weight",[2],0.0426 (3.0)
same,"Small intestinal weight, Mean ± SD",[2]; [4],1.5188 ± 0.1996 g
same,"Small intestinal weight/body weight, Mean ± SD",[2]; [4],0.0602 ± 0.0060
same,"Small intestinal weight, Mean ± SD",[2]; [5],1.7486 ± 0.1857 g
same,"Small intestinal weight/body weight, Mean ± SD",[2]; [5],0.0670 ± 0.0066
same,"Small intestinal weight, Mean ± SD",[2]; [6],1.5975 ± 0.1921 g
same,"Small intestinal weight/body weight, Mean ± SD",[2]; [6],0.0631 ± 0.0067
same,"Small intestinal weight, Mean ± SD",[2]; [7],1.5563 ± 0.2025 g
same,"Small intestinal weight/body weight, Mean ± SD",[2]; [7],0.0618 ± 0.0072
same,"Small intestinal weight, Mean ± SD",[2]; [8],1.3813 ± 0.1131 g
same,"Small intestinal weight/body weight, Mean ± SD",[2]; [8],0.0561 ± 0.0038
same,"Small intestinal weight, Mean ± SD",[2]; [9],1.2900 ± 0.1896 g
same,"Small intestinal weight/body weight, Mean ± SD",[2]; [9],0.0487 ± 0.0055
same,"Small intestinal weight, Mean ± SD",[2]; [10],1.1413 ± 0.2003 g
same,"Small intestinal weight/body weight, Mean ± SD",[2]; [10],0.0456 ± 0.0064
same,"γ (shape factor, Hillslope), parameter estimate (CV %), small intestinal weight",[2],1.8184 (38.9)
same,"γ (shape factor, Hillslope), parameter estimate (CV %), small intestinal weight relative to body weight",[2],2.0485 (32.2)
same,"Emax, parameter estimate (CV %), small intestinal weight",[2],1.6270 (2.9) g
same,"Emax, parameter estimate (CV %), small intestinal weight relative to body weight",[2],0.0636 (2.2)
same,treatment-induced increase (Emax-E0) compared to A2G-GLP-2(1-33),[2]; [11],1.7 fold
same,increase in Emax compared to A2G-GLP-2(1-33),[2]; [12],16%
same,increase in Emax compared to A2G-GLP-2(1-33),[2]; [13],34%
same,"Emax − E0, parameter estimate (CV %), small intestinal weight",[2],0.5278 (12.3) g
same,"Emax − E0, parameter estimate (CV %), small intestinal weight relative to body weight",[2],0.0211 (9.3)
CCCCCCCCCCCCCCCC(=O)NCCC(=O)NCCCC[C@H](NC(=O)[C@H](CC(N)=O)NC(=O)[C@H](CC(=O)O)NC(=O)[C@H](CC(C)C)NC(=O)[C@@H](NC(=O)[C@@H](NC(=O)[C@H](CC(N)=O)NC(=O)[C@H](CCSC)NC(=O)[C@H](CCC(=O)O)NC(=O)[C@H](CC(=O)O)NC(=O)[C@H](CO)NC(=O)[C@H](Cc1ccccc1)NC(=O)[C@H](CO)NC(=O)CNC(=O)[C@H](CC(=O)O)NC(=O)[C@H](C)NC(=O)[C@@H](N)Cc1c[nH]cn1)[C@@H](C)O)[C@@H](C)CC)C(=O)N[C@@H](C)C(=O)N[C@@H](C)C(=O)N[C@@H](CCCNC(=N)N)C(=O)N[C@@H](CC(=O)O)C(=O)N[C@@H](Cc1ccccc1)C(=O)N[C@H](C(=O)N[C@@H](CC(N)=O)C(=O)N[C@@H](Cc1c[nH]c2ccccc12)C(=O)N[C@@H](CC(C)C)C(=O)N[C@H](C(=O)N[C@@H](CCC(N)=O)C(=O)N[C@H](C(=O)N[C@@H](CCCNC(=N)N)C(=O)N[C@H](C(=O)N[C@H](C(=O)N[C@@H](CC(=O)O)C(=O)O)[C@@H](C)O)[C@@H](C)CC)[C@@H](C)O)[C@@H](C)CC)[C@@H](C)CC [L17K(3-(hexadecanoylamino)propionyl)/K30R-GLP-2(1-33)],half-life,[1],4.4 ± 1.1 h
same,treatment-induced increase (Emax-E0) compared to A2G-GLP-2(1-33),[2]; [3],8.6 fold and 8 fold
same,"E0, parameter estimate (CV %), small intestinal weight",[2],1.1008 (3.8) g
same,"E0, parameter estimate (CV %), small intestinal weight relative to body weight",[2],0.0424 (2.9)
same,"Small intestinal weight, Mean ± SD",[2]; [14],1.8463 ± 0.1546 g
same,"Small intestinal weight/body weight, Mean ± SD",[2]; [14],0.0697 ± 0.0055
same,"Small intestinal weight, Mean ± SD",[2]; [15],1.8650 ± 0.3423 g
same,"Small intestinal weight/body weight, Mean ± SD",[2]; [15],0.0693 ± 0.0075
same,"Small intestinal weight, Mean ± SD",[2]; [16],1.8325 ± 0.2052 g
same,"Small intestinal weight/body weight, Mean ± SD",[2]; [16],0.0718 ± 0.0079
same,"Small intestinal weight, Mean ± SD",[2]; [17],1.5713 ± 0.1492 g
same,"Small intestinal weight/body weight, Mean ± SD",[2]; [17],0.0619 ± 0.0040
same,"Small intestinal weight, Mean ± SD",[2]; [18],1.5850 ± 0.1996 g
same,"Small intestinal weight/body weight, Mean ± SD",[2]; [18],0.0618 ± 0.0050
same,"Small intestinal weight, Mean ± SD",[2]; [19],1.5175 ± 0.1423 g
same,"Small intestinal weight/body weight, Mean ± SD",[2]; [19],0.0602 ± 0.0038
same,"Small intestinal weight, Mean ± SD",[2]; [20],1.3886 ± 0.1313 g
same,"Small intestinal weight/body weight, Mean ± SD",[2]; [20],0.0541 ± 0.0033
same,effect induced by the lowest dose used,[2]; lowest dose,30-40 % of Emax
same,"γ (shape factor, Hillslope), parameter estimate (CV %), small intestinal weight",[2],0.5889 (52.9)
same,"γ (shape factor, Hillslope), parameter estimate (CV %), small intestinal weight relative to body weight",[2],0.7249 (41.2)
same,"Emax, parameter estimate (CV %), small intestinal weight",[2],2.0310 (13.1) g
same,"Emax, parameter estimate (CV %), small intestinal weight relative to body weight",[2],0.0727 (5.4)
same,treatment-induced increase (Emax-E0) compared to A2G-GLP-2(1-33),[2]; [11],2.5 fold
same,increase in Emax compared to A2G-GLP-2(1-33),[2]; [12],33%
same,increase in Emax compared to A2G-GLP-2(1-33),[2]; [13],67%
same,"Emax − E0, parameter estimate (CV %), small intestinal weight",[2],0.9302 (29.3) g
same,"Emax − E0, parameter estimate (CV %), small intestinal weight relative to body weight",[2],0.0303 (13.7)
